The results in this text go back to article PMC9293779, “Elucidation of binding preferences of YEATS domains to site-specific acetylated nucleosome core particles” (The Journal of Biological Chemistry, 2022).

This test deals with Unmodified H3 (15–39) (Homo sapiens). As to the kind of experiment: ITC. Conditions: domain or fragment; modification not given.

B1: AG-fused YEATS2-YEATS domain, Q9ULM3 200-349 (protein)
chain: ETSRLFVKKTIVVGNVSKYIPPDKREENDQSTHKWMVYVRGSRREPSINHFVKKVWFFLHPSYKPNDLVEVREPPFHLTRRGWGEFPVRVQVHFKDSQNKRIDIIHNLKLDRTYTGLQTLGAETVVDVELHRHSLGEDCIYPQSSESDIS
In turn, B1 yielded a Kd of over 1 mM.

B2: YEATS2-YEATS domain (residues 200–349) for ITC, Q9ULM3 200-349 (protein)
chain: B1 chain
For B2, the Kd is over 1 mM.

The Kd is the concentration at which binding is half-saturated.
